# In US20070129307A1, “Insulin epitopes for the treatment of type 1 diabetes” (The University of British Columbia, priority 2001, published 2007):
# Test system: human autoreactive T cells (PBMC)
# Experiment: Interferon gamma ELISPOT of PBMC from type 1 diabetes patients (Example 5)
# Type: cell-based
# Conditions: 1 μM peptide, PBMC 20,000 per well, recent onset type 1 diabetes patients, FIG. 8
sequence,measurement,value
SLYNTVATL (HIV peptite epitope) [reference compound],recognition by human autoreactive T cells (interferon-gamma ELISPOT),recognise
